Assay results from patent US20260265239A1, “CRYSTAL FORM OF 2,6-PIPERIDINEDIONE COMPOUND, AND PREPARATION METHOD THEREFOR AND USE THEREOF” (ZHANGZHOU PIEN TZE HUANG PHARMACEUTICAL CO., LTD., priority 2023, published 2026).
Counter-ions that a name gives are not always drawn. Like-named read-outs stand apart in the source and are kept apart here.

Key:
[1] = Pharmacokinetic evaluation in beagle dogs; type: in vivo; conditions: male, dog, plasma, po, Intragastric administration, read-out: Bioavailability F
From the text: Male beagle dogs were selected as the experimental animals in this study. The LC/MS/MS method was employed to quantitatively determine the plasma drug concentrations at different time points after intravenous injection or intragastric administration of the test compound, aiming to evaluate the pharmacokinetic characteristics of the compound of the present disclosure in beagle dogs.
Beagle dogs (male, 7 to 10 kg, Beijing Mars Biotechnology Co., Ltd.).
A solution of the test compound was slowly injected intravenously into beagle dogs (fed) via the peripheral vein (vehicle: 5% DMSO/10% Solutol/85% H2O), or administered intragastrically to beagle dogs (fed). For intravenous administration, 0.5 mL of blood was collected from the peripheral vein at 0.083, 0.25, 0.5, 1, 2, 4, 6, 8, and 24 h after administration, placed in EDTA-2K anticoagulant tubes, and centrifuged at 3200 g for 10 minutes at 2 to 8° C. to separate the supernatant. […] Plasma drug concentrations were determined by the LC-MS/MS method, and relevant pharmacokinetic parameters were calculated using Phoenix WinNonlin 6.3 or 8.3.5 pharmacokinetic software with non-compartmental model linear-log trapezoidal method.

[2] = tested on: human diffuse large B-cell lymphoma TMD-8 cells; assay: BALB/c nude mouse subcutaneous xenograft tumor model of human diffuse large B-cell lymphoma TMD-8 cells; type: in vivo, BALB/c nude mice
Protocol: The antitumor effect of the test compound was evaluated using a BALB/c nude mouse subcutaneous xenograft tumor model of human diffuse large B-cell lymphoma TMD-8 cells.
• 1. Experimental animals: BALB/c nude mice, female, 6 to 8 weeks old. Vital River Laboratory Animal Technology Co., Ltd. • 2. Cell line: Human diffuse large B-cell lymphoma TMD-8 cells (purchased from Shanghai Huzhen Industrial Co., Ltd.).
Cell culture: Routine cell culture was conducted in RPMI-1640 medium containing 10% fetal bovine serum under 5% CO2 at 37° C. Cells were passaged based on cell growth conditions at a passage ratio of 1:3 to 1:4.
Tumor cell inoculation and grouping: TMD-8 cells in the logarithmic growth phase were harvested, counted, and resuspended in a mixture of 50% serum-free RPMI-1640 medium and 50% Matrigel. The cell concentration was adjusted to 4.0×10^7 cells/mL. […]
The pharmacodynamic experiment was conducted with a 7-day administration cycle, where the test compound was administered once daily intragastrically at 24-hour intervals, for a total of three cycles. During the experiment, animal body weight and tumor size were measured twice a week, and clinical symptoms were observed and recorded daily.
The test compound was administered at doses of 10 mg/kg, 30 mg/kg, and 100 mg/kg, with the vehicle being 10% DMSO/10% Solutol HS15/80% water. Tumor volume (TV) was calculated using the formula: ½×a×b^2, where a and b represent the measured length and width of the tumor, respectively. […] The relative tumor proliferation rate (T/C, %) was calculated using the formula: T/C %=TRTV/CRTV[…] (TRTV: mean RTV of the treatment group; CRTV: mean RTV of the negative control group). The relative tumor volume (RTV) was calculated based on the tumor measurement results, with the formula RTV=Vt/V0, where V0 is the tumor volume measured at the time of grouping administration (i.e., Day 1), and Vt is the tumor volume at a certain measurement time. […]
The experimental data were calculated and subjected to relevant statistical processing using Microsoft Office Excel 2007 software. […]

Row | SMILES | bioavailability ([1]; 5 mg/kg) | Relative Tumor Volume (Day 22) ([2]; 10 mg/kg intragastric once daily) | Relative Tumor Volume (Day 22) ([2]; 30 mg/kg intragastric once daily) | Relative Tumor Volume (Day 22) ([2]; 100 mg/kg intragastric once daily) | bioavailability ([1]; 15 mg/kg)
1 | O=C1CCC(c2noc3ccc4c(NC(=O)CN5CCN(C[C@H]6CC[C@H](n7cc(NC(=O)c8coc(-c9ccnc(NCC%10CC%10)c9)n8)c(C(F)F)n7)CC6)CC5)cccc4c23)C(=O)N1 (some centres unmarked) | 62% | – | – | – | –
2 | O=C1CCC(c2noc3ccc4c(NC(=O)CN5CCN(C[C@H]6CC[C@H](n7cc(NC(=O)c8coc(-c9ccnc(NCC%10CC%10)c9)n8)c(C(F)F)n7)CC6)CC5)cccc4c23)C(=O)N1 (some centres unmarked) [Hydrochloride of Compound of Formula (I)] | – | 4.41 | 2.60 | 1.78 | 60.8%
